Measurements reported in US20230111853A1, “COMPOUNDS MODULATING PROTEIN RECRUITMENT AND/OR DEGRADATION” (Orionis Biosciences, Inc., priority 2019, published 2023).

Test system: IKZF1, ASS1 and SALL4 recruitment to CRBN
Experiment: Recruitment assessment: recruitment of any tested substrate from among IKZF1, ASS1 and SALL4
Assay type: cell-based
Details: any tested substrate at any tested compound concentration

O=C1CCC(N2Cc3ccc(NC(=O)c4cnc5[nH]cnc5c4)cc3C2=O)C(=O)N1 (stereo not shown)
Recruitment Assessment: TRUE
